US10278923B2, “Oral dosing of GLP-1 compounds” (Novo Nordisk A/S, priority 2013, dated 2019)

Test: Pharmacokinetic study: variability in plasma concentration (% CV) after p.o. administration of SNAC tablet to Beagle dogs
Conditions: for % CV AUC: p.o. tablet with 300 mg SNAC
Description: The other monoclonal antibody, specific for an N-terminal epitope, was biotinylated. […] Illumination of the complex releases singlet oxygen atoms from the donor beads which channels into the acceptor beads and trigger chemiluminescence which was measured in the EnVision plate reader.
The LC-MS system consisted of Waters Acquity UPLC system (Waters) consisting of an autosampler (Model Acq-SM), pump (Model Acq-BSM), column oven (Model Acq-SM), detector (Model Acq-TUV) and LTQ Orbitrap XL (Thermo Fisher). RP-HPLC separation was achieved using a linear gradient of acetonitrile in 0.1% formic acid using CSH C18 column (Waters, 1×150 mm) with a flow rate of 0.1 ml/min at 45° C.
A pharmacokinetic study was carried out to determine plasma half-life of the GLP-1 peptides after p.o. administration to Beagle dogs.
(§1) Dogs were administered p.o. GLP-1 peptide 1 in a SNAC formulation. Blood samples were drawn at predefined time points after dosing, and samples were analysed for concentration of the GLP-1 peptide. Based on these measurements plasma concentration versus time profile were plotted and a non-compartmental pharmacokinetic analysis of the data was performed. The variability in plasma concentration of the GLP-1 peptide was determined as % CV for AUC. The amount of SNAC in the tablet composition was 300 mg.
as §1, with “Blood” for “Dogs were administered p.o. GLP-1 peptide 1 in a SNAC formulation. Blood”

## N^ε26{2-[2-(2-{2-[2-(2-{(S)-4Carboxy-4-[10-(4-carboxyphenoxy)decanoylamino]-butyrylamino}ethoxy)ethoxy]acetylamino}ethoxy)ethoxy]acetyl}, N^ε37-{2-[2-(2-{2-[2-(2-{(S)-4-carboxy-4-[10-(4-carboxyphenoxy)decanoylamino]butyrylamino}ethoxy)ethoxy]acetyl-amino}ethoxy)ethoxy]acetyl}-[Aib^8,Arg^34,Lys^37]GLP-1(7-37)-OH [GLP-1 peptide 2]
10 mg daily for 7 days vs single dose of 10 mg
  variability in plasma exposure, daily dosing compared to single dose: significantly reduced
10 mg, single dose
  % CV AUC: 67%
10 mg/day for 7 days
  % CV AUC: 33%
